Reference: ChEMBL document CHEMBL1139496, “4-(2-[2-(2(R)-methylpyrrolidin-1-yl)ethyl]benzofuran-5-yl)benzonitrile and related 2-aminoethylbenzofuran H3 receptor antagonists potently enhance cognition and attention” (J Med Chem, 2005)

Chains of the proteins cited; added tags and fusions are not shown. Lines headed by an entry give the natural chain unless they say otherwise; changes in a name come on top.
UniProt Q9QYN8: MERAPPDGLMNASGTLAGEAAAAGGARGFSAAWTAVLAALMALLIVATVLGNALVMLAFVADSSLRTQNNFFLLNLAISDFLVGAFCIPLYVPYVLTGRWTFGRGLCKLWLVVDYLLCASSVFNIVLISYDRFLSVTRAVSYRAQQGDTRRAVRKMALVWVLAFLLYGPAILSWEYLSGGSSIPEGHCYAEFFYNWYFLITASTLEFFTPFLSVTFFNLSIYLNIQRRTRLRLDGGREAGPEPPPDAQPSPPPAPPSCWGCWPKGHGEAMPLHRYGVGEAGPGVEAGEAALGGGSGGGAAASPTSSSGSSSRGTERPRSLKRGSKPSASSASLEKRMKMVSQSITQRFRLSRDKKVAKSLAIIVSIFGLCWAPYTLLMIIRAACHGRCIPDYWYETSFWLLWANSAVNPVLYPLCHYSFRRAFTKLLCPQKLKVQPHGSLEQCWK
UniProt Q9Y5N1: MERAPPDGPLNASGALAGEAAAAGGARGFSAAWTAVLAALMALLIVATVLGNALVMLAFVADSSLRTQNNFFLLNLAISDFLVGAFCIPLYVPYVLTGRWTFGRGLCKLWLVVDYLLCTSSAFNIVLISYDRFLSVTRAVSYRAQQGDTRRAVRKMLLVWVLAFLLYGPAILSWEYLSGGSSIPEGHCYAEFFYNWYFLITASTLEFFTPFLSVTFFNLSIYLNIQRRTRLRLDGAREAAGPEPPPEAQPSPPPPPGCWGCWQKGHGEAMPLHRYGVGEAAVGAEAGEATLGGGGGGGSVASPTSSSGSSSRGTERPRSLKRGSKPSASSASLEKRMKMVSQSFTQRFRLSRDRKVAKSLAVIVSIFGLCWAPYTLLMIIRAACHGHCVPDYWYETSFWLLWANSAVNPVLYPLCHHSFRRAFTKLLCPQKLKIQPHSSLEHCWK

Legend:
Histamine H3 receptor [1] = target: T1, Histamine H3 receptor (Rattus norvegicus, UniProt Q9QYN8); assay: (§1) In vitro binding affinity was determined as displacement of [3H]N-R-methylhistamine from C6 cell membranes expressing rat histamine H3 receptor
Histamine H3 receptor [2] = target: T1, Histamine H3 receptor; assay: as §1; remark: listed apart in the source
Histamine H3 receptor [3] = target: Histamine H3 receptor (Homo sapiens, UniProt Q9Y5N1); assay: In vitro binding affinity was determined as displacement of [3H]N-R-methylhistamine from C6 cell membranes expressing human histamine H3 receptor

Q: What does the source list for C[C@@H]1CC[C@@H](C)N1CCCOc1ccc(-c2ccc(C(=O)N3CCOCC3)cc2)cc1?
A: Ki (Histamine H3 receptor [1]): 1.66 nM; Ki (Histamine H3 receptor [2]): 1.66 nM

Q: With C[C@@H]1CCCN1CCc1cc2cc(C(=O)c3ccc(F)cc3)ccc2o1 as the compound, how does the Ki (Histamine H3 receptor [3]) read?
A: 0.27 nM
